Target: PSMB8-FLAG (immunoproteasome) (Homo sapiens, UniProt P20618+P28062)
Experiment: Immunoproteasome activity assay on immunoprecipitated PSMB8-FLAG (Ac-ANW-AMC)
Details: 100 nM for 30 min, n=3

By UniProt entry, the sequences of proteins in these tests, tags left out. Where a name states a change or a piece, a line headed by the entry shows the natural chain unless it says otherwise.
UniProt P20618: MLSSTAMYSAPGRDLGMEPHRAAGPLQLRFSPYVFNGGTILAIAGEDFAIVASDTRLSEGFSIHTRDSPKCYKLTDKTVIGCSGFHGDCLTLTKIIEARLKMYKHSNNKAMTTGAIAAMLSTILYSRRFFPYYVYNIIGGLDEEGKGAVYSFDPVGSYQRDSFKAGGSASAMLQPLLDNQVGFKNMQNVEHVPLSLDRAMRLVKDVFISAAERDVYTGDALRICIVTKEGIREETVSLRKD
UniProt P28062: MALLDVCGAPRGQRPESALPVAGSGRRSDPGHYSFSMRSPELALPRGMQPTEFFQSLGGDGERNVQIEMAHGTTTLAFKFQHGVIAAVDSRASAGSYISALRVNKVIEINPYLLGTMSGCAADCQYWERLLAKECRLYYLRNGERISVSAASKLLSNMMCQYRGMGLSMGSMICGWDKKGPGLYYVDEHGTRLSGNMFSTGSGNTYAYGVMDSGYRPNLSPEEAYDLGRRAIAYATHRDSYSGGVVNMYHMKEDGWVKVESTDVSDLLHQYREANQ

For COc1ccc(C[C@H](NC(=O)[C@H](C)NC(=O)CN2CCOCC2)C(=O)N[C@@H](Cc2ccccc2)C(=O)C2(C)CO2)cc1 (stereo in doubt) [ONX-0914, reference compound], which “PSMB8 activity at single concentration” value is on record?
Its value is “inhibited PSMB8 potently”.

Reference: article PMC8837819, “Syrbactin-class dual constitutive- and immuno-proteasome inhibitor TIR-199 impedes myeloma-mediated bone degeneration in vivo” (Bioscience Reports, 2022)
